biological target: HLA-B*4402 (Homo sapiens, UniProt P01889, A223V/A65T/A93T/A95T/D201E/D98Y/E176V/E187L/E204Q/E69K/G107R/H137Y/K202T/L105A/L119I/N104T/N87E/Q56L/Q94N/R106L/R155S/R180D/S101N/S121R/S35A/S48T/T118I/V36M/W191S/Y140D/Y91S); experiment: biochemical; type: binding; details: not given

Chains of the proteins cited; added tags and fusions are not shown. Lines headed by an entry give the natural chain unless they say otherwise; changes in a name come on top.
UniProt P01889: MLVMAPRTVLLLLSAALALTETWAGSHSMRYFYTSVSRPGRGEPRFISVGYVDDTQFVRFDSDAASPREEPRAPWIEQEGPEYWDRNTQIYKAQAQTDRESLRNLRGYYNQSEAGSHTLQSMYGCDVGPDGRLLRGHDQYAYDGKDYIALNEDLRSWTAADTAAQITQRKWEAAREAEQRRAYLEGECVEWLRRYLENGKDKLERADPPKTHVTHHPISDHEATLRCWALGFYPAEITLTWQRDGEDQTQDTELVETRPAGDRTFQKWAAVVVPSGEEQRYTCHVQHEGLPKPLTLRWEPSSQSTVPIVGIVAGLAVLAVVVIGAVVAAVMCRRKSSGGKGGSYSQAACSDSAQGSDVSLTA

First: CC[C@H](C)[C@H](NC(=O)[C@@H](NC(=O)[C@@H](NC(=O)[C@@H](NC(=O)[C@H](Cc1c[nH]c2ccccc12)NC(=O)[C@H](CC(C)C)NC(=O)[C@H](CC(N)=O)NC(=O)[C@H](CCC(=O)O)NC(=O)[C@H](C)N)C(C)C)[C@@H](C)O)C(C)C)C(=O)O
Second: CC(C)C[C@H](NC(=O)[C@H](CC(N)=O)NC(=O)[C@H](CCC(=O)O)NC(=O)[C@H](C)N)C(=O)N[C@@H](Cc1c[nH]c2ccccc12)C(=O)N[C@H](C(=O)N[C@H](C(=O)N[C@H](C(=O)N[C@@H](CCCNC(=N)N)C(=O)O)C(C)C)[C@@H](C)O)C(C)C
The IC50 of the first is 21-fold lower: 237 nM for the first, 4860 nM for the second.

`CC(C)[C@H](NC(=O)[C@H](CC(N)=O)NC(=O)[C@H](CCC(=O)O)NC(=O)[C@H](C)N)C(=O)N[C@@H](Cc1c[nH]c2ccccc12)C(=O)N[C@H](C(=O)N[C@H](C(=O)N[C@H](C(=O)N[C@@H](Cc1ccc(O)cc1)C(=O)O)C(C)C)[C@@H](C)O)C(C)C` and `CC(C)C[C@H](NC(=O)[C@@H]1CCCN1C(=O)[C@H](CCC(=O)O)NC(=O)[C@H](C)N)C(=O)N[C@@H](Cc1c[nH]c2ccccc12)C(=O)N[C@H](C(=O)N[C@H](C(=O)N[C@H](C(=O)N[C@@H](Cc1ccc(O)cc1)C(=O)O)C(C)C)[C@@H](C)O)C(C)C` are within 1.5-fold of each other in IC50: 1110 nM for the first, 1320 nM for the second.

`CC[C@H](C)[C@H](NC(=O)[C@H](CCC(=O)O)NC(=O)CN)C(=O)N[C@@H](CO)C(=O)N1CCC[C@H]1C(=O)N[C@@H](Cc1ccc(O)cc1)C(=O)N1CCC[C@H]1C(=O)N[C@@H](CO)C(=O)N[C@@H](CC(C)C)C(=O)O` gave an IC50 of 3560 nM.

same assay, conditions: B*4402

Compared with `CC(C)C[C@H](NC(=O)[C@H](CC(C)C)NC(=O)[C@H](CC(C)C)NC(=O)[C@H](Cc1ccccc1)NC(=O)[C@H](Cc1c[nH]cn1)NC(=O)[C@@H](NC(=O)[C@H](CC(C)C)NC(=O)[C@H](CCC(=O)O)NC(=O)[C@H](C)N)C(C)C)C(=O)O`, `CC(C)C[C@H](NC(=O)[C@H](CC(C)C)NC(=O)[C@H](CC(C)C)NC(=O)[C@H](Cc1ccccc1)NC(=O)[C@H](Cc1c[nH]cn1)NC(=O)[C@@H](NC(=O)[C@H](CC(C)C)NC(=O)[C@H](CCC(=O)O)NC(=O)[C@@H](N)C(C)C)C(C)C)C(=O)O` is 18-fold higher in IC50: 33 nM for the first, 579 nM for the second. The first is the more potent here.

First: CSCC[C@H](NC(=O)[C@H](CCC(=O)O)NC(=O)[C@H](C)N)C(=O)N[C@@H](CC(C)C)C(=O)NCC(=O)N[C@@H](CO)C(=O)N[C@H](C(=O)N[C@H](C(=O)NCC(=O)O)C(C)C)C(C)C
Second: CC(C)C[C@H](NC(=O)[C@H](C)NC(=O)[C@H](CC(C)C)NC(=O)CNC(=O)[C@H](CO)NC(=O)CNC(=O)[C@H](CC(C)C)NC(=O)[C@H](CCC(=O)O)NC(=O)[C@@H](N)CCCNC(=N)N)C(=O)O [RELGSGLAL]
The IC50 of the first is 17-fold lower: 27 nM for the first, 457 nM for the second. The first is the more potent here.

`C[C@H](NC(=O)[C@H](CC(=O)O)NC(=O)[C@H](CCC(N)=O)NC(=O)[C@@H](NC(=O)[C@H](CCC(=O)O)NC(=O)[C@@H]1CCCN1C(=O)[C@H](CCC(=O)O)NC(=O)[C@@H](N)CS)[C@@H](C)O)C(=O)N[C@H](C(=O)O)[C@@H](C)O` and `CC(C)[C@H](NC(=O)[C@@H]1CCCN1C(=O)[C@H](CC(N)=O)NC(=O)[C@H](CCC(N)=O)NC(=O)[C@@H](NC(=O)[C@H](CCC(=O)O)NC(=O)[C@@H](N)CS)[C@@H](C)O)C(=O)N[C@@H](CO)C(=O)N[C@@H](C)C(=O)O` are within 1.5-fold of each other in IC50: 23400 nM for the first, 20000 nM for the second.

Compared with `CC(C)C[C@H](NC(=O)[C@@H]1CCCN1C(=O)[C@H](CO)NC(=O)[C@H](CCCNC(=N)N)NC(=O)[C@@H]1CCCN1C(=O)[C@H](C)NC(=O)[C@H](CCC(=O)O)NC(=O)[C@@H](N)CCC(=O)O)C(=O)O`, `CSCC[C@H](NC(=O)[C@H](CCCNC(=N)N)NC(=O)[C@@H]1CCCN1C(=O)CNC(=O)[C@H](CCC(=O)O)NC(=O)[C@@H](N)CCC(=O)O)C(=O)N[C@@H](Cc1ccccc1)C(=O)N1CCC[C@H]1C(=O)N[C@@H](CC(=O)O)C(=O)N[C@@H](CC(C)C)C(=O)O` is 17-fold lower in IC50: 1590 nM for the first, 95 nM for the second. The second is the more potent here.

`CC[C@H](C)[C@H](NC(=O)[C@H](CCC(=O)O)NC(=O)[C@@H](N)CCC(=O)O)C(=O)N[C@H](C(=O)NCC(=O)N[C@@H](Cc1ccc(O)cc1)C(=O)N[C@@H](CC(C)C)C(=O)N[C@@H](Cc1ccc(O)cc1)C(=O)O)[C@@H](C)O` and `CC[C@H](C)[C@H](NC(=O)[C@H](Cc1ccc(O)cc1)NC(=O)[C@H](CC(C)C)NC(=O)[C@H](Cc1ccc(O)cc1)NC(=O)CNC(=O)[C@@H](NC(=O)[C@@H](NC(=O)[C@H](CCC(=O)O)NC(=O)[C@@H](N)CCC(=O)O)[C@@H](C)CC)[C@@H](C)O)C(=O)O` are within 1.5-fold of each other in IC50: 11 nM for the first, 12 nM for the second.

Going from `CC[C@H](C)[C@H](NC(=O)[C@H](CCCCN)NC(=O)[C@H](CCC(=O)O)NC(=O)[C@@H](N)CCC(=O)O)C(=O)N[C@@H](Cc1c[nH]c2ccccc12)C(=O)N[C@@H](CCC(=O)O)C(=O)N[C@@H](CCC(=O)O)C(=O)N[C@@H](CC(C)C)C(=O)O` to `CC(C)C[C@H](NC(=O)[C@H](CCC(=O)O)NC(=O)[C@H](CC(C)C)NC(=O)[C@H](C)NC(=O)[C@H](CCC(=O)O)NC(=O)[C@H](CC(N)=O)NC(=O)[C@H](CC(C)C)NC(=O)[C@H](CCC(=O)O)NC(=O)[C@@H](N)CCCNC(=N)N)C(=O)O`, the IC50 falls from 99000 nM to 525 nM (190-fold). The second is the more potent here.

Going from `CC(C)C[C@H](NC(=O)[C@H](Cc1ccc(O)cc1)NC(=O)[C@H](CCC(=O)O)NC(=O)[C@@H](N)CCC(=O)O)C(=O)N[C@H](C(=O)N1CCC[C@H]1C(=O)N[C@@H](CCC(N)=O)C(=O)N[C@@H](CCC(N)=O)C(=O)NCC(=O)O)C(C)C` to `CC(C)[C@H](NC(=O)[C@H](CC(=O)O)NC(=O)[C@@H]1CCCN1C(=O)[C@H](CCC(N)=O)NC(=O)[C@H](CC(N)=O)NC(=O)[C@@H](NC(=O)[C@H](Cc1ccc(O)cc1)NC(=O)[C@H](CCC(=O)O)NC(=O)[C@@H]1CCCN1)C(C)C)C(=O)O`, the IC50 rises from 651 nM to 1110 nM (1.7-fold). The first is the more potent here.

Going from `CC(C)[C@H](NC(=O)[C@H](CO)NC(=O)[C@H](CC(=O)O)NC(=O)[C@H](CCC(=O)O)NC(=O)[C@H](CCCNC(=N)N)NC(=O)CNC(=O)[C@H](CCC(=O)O)NC(=O)[C@@H](N)Cc1ccccc1)C(=O)N[C@@H](Cc1ccccc1)C(=O)O` to `CC(C)[C@H](NC(=O)[C@H](CC(=O)O)NC(=O)[C@H](CO)NC(=O)CNC(=O)[C@H](C)NC(=O)CNC(=O)[C@H](CCC(=O)O)NC(=O)[C@@H](N)CO)C(=O)N[C@@H](Cc1ccccc1)C(=O)O`, the IC50 falls from 221 nM to 69 nM (3.2-fold).

Compared with `CC(C)C[C@H](NC(=O)[C@H](C)NC(=O)[C@H](CCC(=O)O)NC(=O)CNC(=O)[C@H](CCCNC(=N)N)NC(=O)[C@H](C)NC(=O)[C@H](CCC(=O)O)NC(=O)[C@@H](N)CC(C)C)C(=O)NCC(=O)O`, `CC(C)C[C@H](NC(=O)CNC(=O)[C@H](CC(C)C)NC(=O)[C@H](C)NC(=O)[C@H](CCC(=O)O)NC(=O)CNC(=O)[C@H](CCCNC(=N)N)NC(=O)[C@H](C)NC(=O)[C@H](CCC(=O)O)NC(=O)[C@@H](N)CC(C)C)C(=O)N[C@H](C(=O)O)C(C)C` is higher in IC50: 11000 nM for the first, > 17800 nM for the second. The first is the more potent here.

First: CSCC[C@H](NC(=O)[C@H](CC(=O)O)NC(=O)[C@H](CC(=O)O)NC(=O)[C@H](CC(=O)O)NC(=O)[C@H](CCC(=O)O)NC(=O)[C@@H](N)CC(C)C)C(=O)NCC(=O)N[C@@H](CC(=O)O)C(=O)N[C@@H](CC(C)C)C(=O)O
Second: CC(C)C[C@H](NC(=O)[C@H](CO)NC(=O)[C@H](CCCNC(=N)N)NC(=O)[C@H](CC(C)C)NC(=O)[C@H](CCC(N)=O)NC(=O)[C@H](CC(C)C)NC(=O)[C@H](CCC(=O)O)NC(=O)[C@@H](N)CCCNC(=N)N)C(=O)O
The IC50 of the first is 2.1-fold lower: 947 nM for the first, 2030 nM for the second. The first is the more potent here.

Going from `C[C@H](NC(=O)[C@H](CCC(=O)O)NC(=O)[C@@H]1CCCN1)C(=O)N[C@@H](CCC(N)=O)C(=O)N[C@@H](CC(N)=O)C(=O)N[C@H](C(=O)N[C@H](C(=O)N[C@@H](Cc1ccc(O)cc1)C(=O)O)[C@@H](C)O)[C@@H](C)O` to `CC[C@H](C)[C@H](NC(=O)[C@H](CC(N)=O)NC(=O)[C@@H]1CCCN1C(=O)[C@@H](NC(=O)[C@H](Cc1ccccc1)NC(=O)[C@H](CC(C)C)NC(=O)[C@H](CCC(=O)O)NC(=O)[C@@H](N)CCC(N)=O)[C@@H](C)CC)C(=O)O`, the IC50 falls from 2200 nM to 752 nM (2.9-fold). The second is the more potent here.

First: CC[C@H](C)[C@H](NC(=O)[C@H](CC(N)=O)NC(=O)[C@@H]1CCCN1C(=O)[C@@H](NC(=O)[C@H](Cc1ccccc1)NC(=O)[C@H](CC(C)C)NC(=O)[C@H](CCC(=O)O)NC(=O)[C@@H](N)CCC(N)=O)[C@@H](C)CC)C(=O)N[C@H](C(=O)N[C@H](C(=O)O)C(C)C)[C@@H](C)O
Second: CC(C)C[C@H](NC(=O)[C@H](CCC(=O)O)NC(=O)[C@@H](N)[C@@H](C)O)C(=O)N[C@H](C(=O)N[C@@H](CCC(=O)O)C(=O)N1CCC[C@H]1C(=O)N[C@@H](CC(C)C)C(=O)N[C@H](C(=O)N1CCC[C@H]1C(=O)N[C@@H](CO)C(=O)NCC(=O)O)[C@@H](C)O)C(C)C
The IC50 of the first is lower: 93 nM for the first, > 21100 nM for the second. The first is the more potent here.

Work on `CC(C)C[C@H](NC(=O)[C@H](Cc1ccc(O)cc1)NC(=O)[C@H](CCC(=O)O)NC(=O)[C@@H](N)CO)C(=O)N[C@@H](CCC(N)=O)C(=O)N[C@@H](CC(C)C)C(=O)N[C@H](C(=O)N[C@@H](Cc1ccccc1)C(=O)NCC(=O)O)C(C)C` yielded an IC50 of 271 nM.

same assay, conditions: read-out: B*4402

Work on REGPLPAARIPA yielded an IC50 of 32900 nM.

biological target: HLA-B*4001 (Homo sapiens, UniProt P01889, A65T/A93T/A95T/D138N/D98Y/E176V/E69K/N87E/Q56L/Q94N/R180L/S121R/S35A/S48T/T167S/V36M/W171L/Y33H/Y91S); experiment: biochemical; type: binding; details: not given

With `CC(C)C[C@H](NC(=O)[C@H](CC(N)=O)NC(=O)[C@H](CCC(=O)O)NC(=O)[C@H](C)N)C(=O)N[C@@H](Cc1c[nH]c2ccccc12)C(=O)N[C@H](C(=O)N[C@H](C(=O)N[C@H](C(=O)N[C@@H](CS)C(=O)O)C(C)C)[C@@H](C)O)C(C)C` the IC50 was 157 nM.

same assay, conditions: B*4001

Compared with `CC(C)C[C@H](NC(=O)[C@H](CC(C)C)NC(=O)[C@@H](NC(=O)[C@H](CCC(=O)O)NC(=O)[C@H](CCCCN)NC(=O)CNC(=O)[C@H](CCC(=O)O)NC(=O)[C@H](C)N)C(C)C)C(=O)N[C@@H](CC(C)C)C(=O)N[C@H](C(=O)O)C(C)C`, `CC(C)C[C@H](NC(=O)[C@H](CC(N)=O)NC(=O)[C@H](Cc1c[nH]cn1)NC(=O)[C@@H](NC(=O)[C@H](CC(C)C)NC(=O)[C@H](CC(C)C)NC(=O)[C@H](CC(C)C)NC(=O)[C@@H](NC(=O)[C@H](CCC(=O)O)NC(=O)[C@@H](N)CCCCN)C(C)C)C(C)C)C(=O)O` is 330-fold lower in IC50: 1020 nM for the first, 3.1 nM for the second.

From patent US20060079453A1, “Hla binding peptides and their uses” (priority 2002, published 2006)
